# Experimental data from PubChem BioAssay AID1645857 (Buhrlage Lab, Dana-Farber Cancer Institute and Novartis …, 2021).
# Protein sequences, listed by entry. Tags and fused reporters are not part of them. Lines headed by an entry give the natural chain unless they say otherwise; changes in a name come on top.
# UniProt Q96RU2: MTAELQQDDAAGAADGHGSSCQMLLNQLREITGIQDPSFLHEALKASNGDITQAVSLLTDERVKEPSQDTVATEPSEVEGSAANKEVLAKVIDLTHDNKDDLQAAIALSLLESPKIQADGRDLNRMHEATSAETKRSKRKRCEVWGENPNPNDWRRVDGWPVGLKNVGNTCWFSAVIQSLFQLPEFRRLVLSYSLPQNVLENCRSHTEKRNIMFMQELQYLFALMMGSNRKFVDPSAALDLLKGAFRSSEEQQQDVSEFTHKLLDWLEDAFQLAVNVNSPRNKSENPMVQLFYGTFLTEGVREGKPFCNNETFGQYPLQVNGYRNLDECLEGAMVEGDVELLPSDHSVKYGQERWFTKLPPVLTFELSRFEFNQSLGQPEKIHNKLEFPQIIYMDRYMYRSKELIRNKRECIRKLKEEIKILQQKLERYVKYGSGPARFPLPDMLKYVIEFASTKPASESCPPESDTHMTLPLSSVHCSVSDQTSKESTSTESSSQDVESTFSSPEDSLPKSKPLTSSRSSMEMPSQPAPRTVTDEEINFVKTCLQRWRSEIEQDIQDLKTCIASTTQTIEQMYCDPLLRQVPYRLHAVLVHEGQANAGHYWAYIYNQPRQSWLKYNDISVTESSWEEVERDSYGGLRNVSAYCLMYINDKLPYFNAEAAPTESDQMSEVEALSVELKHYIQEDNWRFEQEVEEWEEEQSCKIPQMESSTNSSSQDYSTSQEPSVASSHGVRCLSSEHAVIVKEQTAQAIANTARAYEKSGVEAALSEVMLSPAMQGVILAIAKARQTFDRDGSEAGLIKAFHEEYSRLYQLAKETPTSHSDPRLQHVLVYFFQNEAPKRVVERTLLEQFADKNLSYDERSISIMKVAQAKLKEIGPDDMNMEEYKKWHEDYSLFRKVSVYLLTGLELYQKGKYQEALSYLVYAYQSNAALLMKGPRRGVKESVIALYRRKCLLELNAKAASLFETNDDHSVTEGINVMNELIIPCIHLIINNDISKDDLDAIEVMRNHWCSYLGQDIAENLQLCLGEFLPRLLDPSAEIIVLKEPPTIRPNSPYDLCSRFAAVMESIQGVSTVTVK
# The list shows a part of the results, in another mix than the full data. Active and inactive are the calls of the source. No stated cut-off is given here; in the data, active means inhibition above about 30%; inactive means the rest.
# Target: Ubiquitin carboxyl-terminal hydrolase 28 (Homo sapiens) (UniProt Q96RU2)
# Assay: blocks human USP28 ubiquitin-rhodamine cleavage (AID 1645857)
# Settings: purified USP28, Ub-rhodamine cleavage fluorescence, 30 min; at 25 µM; hits give high values
row,Compound,inhibition
1,CS(=O)(=O)c1ccc(C(=O)N(Cc2ccco2)C2CCN(CCc3ccccn3)CC2)cc1,inactive: -35.1%
2,N#Cc1cccc(C(=O)N(Cc2cccnc2)C2CCN(CCc3ccccn3)CC2)c1,inactive: -25.8%
3,CS(=O)(=O)c1ccc(C(=O)N(Cc2cccnc2)C2CCN(CCc3ccc(Cl)cc3)CC2)cc1,inactive: -82.6%
4,N#Cc1cccc(C(=O)N(Cc2ccco2)C2CCN(CCc3ccccn3)CC2)c1,inactive: 0.0874%
5,CN1C(=O)C2C(NC(=NCc3ccco3)N2CCc2ccccc2)N(C)C1=O (stereo unspecified),inactive: -8.13%
6,COc1ccc(CCN2CCC(N(Cc3ccco3)C(=O)c3ccc(S(C)(=O)=O)cc3)CC2)cc1,inactive: -25.6%
7,N#Cc1cccc(C(=O)N(Cc2ccco2)C2CCN(CCc3ccc(Cl)cc3)CC2)c1,inactive: -20.2%
8,Cc1[nH]c2c(N(C(=O)Nc3ccccc3)C3CCN(Cc4ccccc4)CC3)cccc2c1C,inactive: -13%
9,COc1ccc(CCN2CCC(N(Cc3cccnc3)C(=O)c3cccc(C#N)c3)CC2)cc1,inactive: -32%
10,O=C(c1ccc2c(c1)OCO2)N(Cc1ccco1)C1CCN(CCc2ccccn2)CC1,inactive: -21.9%
11,O=C(COC(=O)C(O)(c1ccccc1)c1ccccc1)NCc1ccc2c(c1)OCO2,inactive: -8.78%
